Test results reported in US4318858A, “Thioethylamide derivatives” (Shionogi & Co., Ltd., priority 1979, dated 1982).

Protein sequences, listed by entry. Tags and fused reporters are not part of them.
UniProt P47747, whole entry: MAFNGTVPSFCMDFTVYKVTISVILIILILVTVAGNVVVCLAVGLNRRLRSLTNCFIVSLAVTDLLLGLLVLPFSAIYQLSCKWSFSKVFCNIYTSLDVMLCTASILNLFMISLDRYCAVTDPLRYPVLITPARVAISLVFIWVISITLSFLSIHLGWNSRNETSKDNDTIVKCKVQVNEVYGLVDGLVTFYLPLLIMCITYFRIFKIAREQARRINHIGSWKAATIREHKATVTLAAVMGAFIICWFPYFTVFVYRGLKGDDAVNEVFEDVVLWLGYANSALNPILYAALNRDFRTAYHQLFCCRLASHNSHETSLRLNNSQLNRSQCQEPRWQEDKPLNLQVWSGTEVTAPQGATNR

Target: T1, histamine H2 receptor (Cavia porcellus, UniProt P47747)
T1 construct: guinea pig's enucleated atrium; from tissue; host or cells: guinea pig isolated ("enucleated") atrium
Assay: inhibition of the palpitation number of guinea pig's enucleated atrium (histamine antagonism)
Type: cell-based
Conditions: compounds (I) as the oxalates, read-out: pA2 (negative logarithm of the concentration required to shift the dose-response of histamine to the high concentration side by 2-fold) (converted)
Source text: The compounds (I) of the present invention and their pharmaceutically acceptable acid addition salts bind the active site of the histamine H2 receptor in competition with histamine to show a histamine H2 blocking activity.
The pA2 value is defined as a negative logarithm of the concentratio
of the compound (I) required to shift the doseresponse of histamine to th
high concentration side by 2fold. [Ariens, E.J., Molecular Pharmacology,
(1964), Academic Press, New York and London].

With `CN/C(=N/CCSCc1nc[nH]c1C)NC#N` [Cimetidine, reference compound] the Kb was 234 nM.
